In paper PMC12102759 (Protein Science : A Publication of the Protein Society, 2025):

Each substance was assayed on AP2M1 MU.
Format: binding, human

Point of comparison: “VSDIDYVPLKSATA(averaged) Y6R (VSDIDRVPLKSATA)”, “PSSM value of the substitution, averaged over the two overlapping peptides” value 0. Against it:
- VSDIDYVPLKSATA(averaged) Y6I (VSDIDIVPLKSATA) — the same, 0
- VSDIDYVPLKSATA(averaged) Y6K (VSDIDKVPLKSATA) — the same, 0
- VSDIDYVPLKSATA(averaged) Y6L (VSDIDLVPLKSATA) — the same, 0
- VSDIDYVPLKSATA(averaged) Y6M (VSDIDMVPLKSATA) — the same, 0
- VSDIDYVPLKSATA(averaged) Y6N (VSDIDNVPLKSATA) — the same, 0
- VSDIDYVPLKSATA(averaged) Y6P (VSDIDPVPLKSATA) — the same, 0
- VSDIDYVPLKSATA(averaged) Y6Q (VSDIDQVPLKSATA) — the same, 0
- VSDIDYVPLKSATA(averaged) Y6S (VSDIDSVPLKSATA) — the same, 0
- VSDIDYVPLKSATA(averaged) Y6T (VSDIDTVPLKSATA) — the same, 0
- VSDIDYVPLKSATA(averaged) Y6V (VSDIDVVPLKSATA) — the same, 0
- VSDIDYVPLKSATA(averaged) Y6W (VSDIDWVPLKSATA) — the same, 0
- VSDIDYVPLKSATA(averaged) Y6Y — higher, 1

Point of comparison: “VSDIDYVPLKSATAIT A14N (VSDIDYVPLKSATNIT)”, “PSSM value of the substitution (DMS by phage display)” value 0.002047. Against it:
- VSDIDYVPLKSATAIT A12A — higher, 0.005544
- VSDIDYVPLKSATAIT A12D (VSDIDYVPLKSDTAIT) — higher, 0.004033
- VSDIDYVPLKSATAIT A12E (VSDIDYVPLKSETAIT) — higher, 0.2236
- VSDIDYVPLKSATAIT A12F (VSDIDYVPLKSFTAIT) — higher, 0.03563
- VSDIDYVPLKSATAIT A12G (VSDIDYVPLKSGTAIT) — lower, 0
- VSDIDYVPLKSATAIT A12H (VSDIDYVPLKSHTAIT) — higher, 0.003172
- VSDIDYVPLKSATAIT A12I (VSDIDYVPLKSITAIT) — lower, 0
- VSDIDYVPLKSATAIT A12K (VSDIDYVPLKSKTAIT) — lower, 0
- VSDIDYVPLKSATAIT A12L (VSDIDYVPLKSLTAIT) — higher, 0.2466
- VSDIDYVPLKSATAIT A12M (VSDIDYVPLKSMTAIT) — higher, 0.08073
- VSDIDYVPLKSATAIT A12N (VSDIDYVPLKSNTAIT) — higher, 0.01184
- VSDIDYVPLKSATAIT A12P (VSDIDYVPLKSPTAIT) — lower, 0.0007881
- VSDIDYVPLKSATAIT A12Q (VSDIDYVPLKSQTAIT) — lower, 0
- VSDIDYVPLKSATAIT A12R (VSDIDYVPLKSRTAIT) — lower, 0
- VSDIDYVPLKSATAIT A12S (VSDIDYVPLKSSTAIT) — higher, 0.2885
- VSDIDYVPLKSATAIT A12T (VSDIDYVPLKSTTAIT) — higher, 0.01191
- VSDIDYVPLKSATAIT A12V (VSDIDYVPLKSVTAIT) — higher, 0.003612
- VSDIDYVPLKSATAIT A12W (VSDIDYVPLKSWTAIT) — higher, 0.08398
- VSDIDYVPLKSATAIT A12Y (VSDIDYVPLKSYTAIT) — lower, 0
- VSDIDYVPLKSATAIT A14A — higher, 0.00476
- VSDIDYVPLKSATAIT A14D (VSDIDYVPLKSATDIT) — higher, 0.005792
- VSDIDYVPLKSATAIT A14E (VSDIDYVPLKSATEIT) — lower, 0
- VSDIDYVPLKSATAIT A14F (VSDIDYVPLKSATFIT) — lower, 0
- VSDIDYVPLKSATAIT A14G (VSDIDYVPLKSATGIT) — higher, 0.04718
- VSDIDYVPLKSATAIT A14H (VSDIDYVPLKSATHIT) — higher, 0.006302
- VSDIDYVPLKSATAIT A14I (VSDIDYVPLKSATIIT) — lower, 0
- VSDIDYVPLKSATAIT A14K (VSDIDYVPLKSATKIT) — lower, 0
- VSDIDYVPLKSATAIT A14L (VSDIDYVPLKSATLIT) — lower, 0.00137
- VSDIDYVPLKSATAIT A14M (VSDIDYVPLKSATMIT) — lower, 0
- VSDIDYVPLKSATAIT A14P (VSDIDYVPLKSATPIT) — higher, 0.003463
- VSDIDYVPLKSATAIT A14Q (VSDIDYVPLKSATQIT) — lower, 0
- VSDIDYVPLKSATAIT A14R (VSDIDYVPLKSATRIT) — higher, 0.2616
- VSDIDYVPLKSATAIT A14S (VSDIDYVPLKSATSIT) — higher, 0.00551
- VSDIDYVPLKSATAIT A14T (VSDIDYVPLKSATTIT) — higher, 0.6599
- VSDIDYVPLKSATAIT A14V (VSDIDYVPLKSATVIT) — the same, 0.002047
- VSDIDYVPLKSATAIT A14W (VSDIDYVPLKSATWIT) — lower, 0
- VSDIDYVPLKSATAIT A14Y (VSDIDYVPLKSATYIT) — lower, 0
- VSDIDYVPLKSATAIT D3A (VSAIDYVPLKSATAIT) — lower, 0
- VSDIDYVPLKSATAIT D3D — higher, 0.004361
- VSDIDYVPLKSATAIT D3E (VSEIDYVPLKSATAIT) — higher, 0.002841
- VSDIDYVPLKSATAIT D3F (VSFIDYVPLKSATAIT) — higher, 0.105
- VSDIDYVPLKSATAIT D3G (VSGIDYVPLKSATAIT) — lower, 0
- VSDIDYVPLKSATAIT D3H (VSHIDYVPLKSATAIT) — lower, 0
- VSDIDYVPLKSATAIT D3I (VSIIDYVPLKSATAIT) — lower, 0
- VSDIDYVPLKSATAIT D3K (VSKIDYVPLKSATAIT) — higher, 0.05908
- VSDIDYVPLKSATAIT D3L (VSLIDYVPLKSATAIT) — higher, 0.142
- VSDIDYVPLKSATAIT D3M (VSMIDYVPLKSATAIT) — higher, 0.009321
- VSDIDYVPLKSATAIT D3N (VSNIDYVPLKSATAIT) — higher, 0.1331
- VSDIDYVPLKSATAIT D3P (VSPIDYVPLKSATAIT) — higher, 0.1041
- VSDIDYVPLKSATAIT D3Q (VSQIDYVPLKSATAIT) — lower, 0
- VSDIDYVPLKSATAIT D3R (VSRIDYVPLKSATAIT) — lower, 0
- VSDIDYVPLKSATAIT D3S (VSSIDYVPLKSATAIT) — lower, 0
- VSDIDYVPLKSATAIT D3T (VSTIDYVPLKSATAIT) — higher, 0.00716
- VSDIDYVPLKSATAIT D3V (VSVIDYVPLKSATAIT) — lower, 0
- VSDIDYVPLKSATAIT D3W (VSWIDYVPLKSATAIT) — higher, 0.4233
- VSDIDYVPLKSATAIT D3Y (VSYIDYVPLKSATAIT) — higher, 0.009713
- VSDIDYVPLKSATAIT D5A (VSDIAYVPLKSATAIT) — lower, 0
- VSDIDYVPLKSATAIT D5D — lower, 0.001041
- VSDIDYVPLKSATAIT D5E (VSDIEYVPLKSATAIT) — higher, 0.3037
- VSDIDYVPLKSATAIT D5F (VSDIFYVPLKSATAIT) — lower, 0
- VSDIDYVPLKSATAIT D5G (VSDIGYVPLKSATAIT) — lower, 0.000826
- VSDIDYVPLKSATAIT D5H (VSDIHYVPLKSATAIT) — lower, 0
- VSDIDYVPLKSATAIT D5I (VSDIIYVPLKSATAIT) — higher, 0.02926
- VSDIDYVPLKSATAIT D5K (VSDIKYVPLKSATAIT) — higher, 0.04531
- VSDIDYVPLKSATAIT D5L (VSDILYVPLKSATAIT) — lower, 0.0005954
- VSDIDYVPLKSATAIT D5M (VSDIMYVPLKSATAIT) — higher, 0.2511
- VSDIDYVPLKSATAIT D5N (VSDINYVPLKSATAIT) — higher, 0.06519
- VSDIDYVPLKSATAIT D5P (VSDIPYVPLKSATAIT) — lower, 0.0007803
- VSDIDYVPLKSATAIT D5Q (VSDIQYVPLKSATAIT) — higher, 0.005783
- VSDIDYVPLKSATAIT D5R (VSDIRYVPLKSATAIT) — lower, 0
- VSDIDYVPLKSATAIT D5S (VSDISYVPLKSATAIT) — lower, 0.0007803
- VSDIDYVPLKSATAIT D5T (VSDITYVPLKSATAIT) — higher, 0.1685
- VSDIDYVPLKSATAIT D5V (VSDIVYVPLKSATAIT) — higher, 0.002387
- VSDIDYVPLKSATAIT D5W (VSDIWYVPLKSATAIT) — lower, 0.0003786
- VSDIDYVPLKSATAIT D5Y (VSDIYYVPLKSATAIT) — higher, 0.1244
- VSDIDYVPLKSATAIT I4A (VSDADYVPLKSATAIT) — lower, 0
- VSDIDYVPLKSATAIT I4D (VSDDDYVPLKSATAIT) — lower, 8.359e-5
- VSDIDYVPLKSATAIT I4E (VSDEDYVPLKSATAIT) — lower, 0
- VSDIDYVPLKSATAIT I4F (VSDFDYVPLKSATAIT) — lower, 0.0005985
- VSDIDYVPLKSATAIT I4G (VSDGDYVPLKSATAIT) — lower, 0
